This note sets out measurements from PubChem BioAssay AID504707 (The Scripps Research Institute Molecular Screening Center, 2011).

The list shows a part of the results, in another mix than the full data. Calls of active or inactive are those of the source.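 Rule for the calls: active = percent activation above the mean of all tested compounds plus 3 SD (cut at about 19% in these data); inactive = the rest.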

This assay concerns the target cAMP-dependent protein kinase type I-alpha regulatory subunit (Bos taurus) + cAMP-dependent protein kinase catalytic subunit beta (Mus musculus) (UniProt P00514+P68181). Description: activators of PKA-R1A holoenzyme, primary screen, biochemical, fluorescence polarization, Cy5-IP20, bovine R1A, mouse PKAc (AID 504707).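 Note: higher means more PKAc released from R1A so a rise in polarization.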 The note with it: PKA-R1A dissociation, at 11.4 µM, active compounds read high, scaled: DMSO 0%, 113 µM cGMP 100%. (In general: In fluorescence polarisation assays a small probe gives low polarisation when free and higher when bound to something large.)
As to `CCC(=O)N(c1ccccc1)C1(COC)CCN(CCn2nnn(CC)c2=O)CC1`, the activation is inactive: -3.66%.
On to `CCC(=O)N(c1ccccc1)C1(COC)CCN(CCc2cccs2)CC1`, for which the activation is inactive: -0.9%.
